Patent US10513539B2, “Hydrophobic modified peptides and their use for liver specific targeting” (Ruprecht-Karls-Universitat Heidelberg, priority 2011, dated 2019)

Details: rat, in vivo
Description: The peptide stearoyl-[K(DOTA[^68Ga])]3-[…] (SEQ ID NO:15)-amide was dissolved in citrate buffer (pH 8.0)+4% BSA and injected i.v. in the tail vene of tumour bearing WAG/Rij rats. The rats were orthopically injected with 1×10^6 syngenic colon carcinoma cells (CC531 cells) 10 days prior to the measurements. At the day of measurement the rats received the peptide in a concentration of 400 nmol/kg body weight. During the experiments the rats were anaesthetised by isoflurane and kept at 37° C.

Substance: Fluodeoxyglucose(^18F) [^18F-FDG, reference compound]
- enrichment of counterstain (PET): enriched in organs consuming high amounts of glucose
